# Laboratory results published in PMC12643509, “High-throughput screens identify genotype-specific therapeutics for channelopathies” (JCI Insight, 2025).
# Columns and labels:
# [1] = target: 12 patient-specific Kv11.1 variants (Homo sapiens, UniProt Q12809, A561V); assay: Tl+-flux trafficking assay of 12 patient-specific Kv11.1 variants; settings: A561V; minor increase seen by FACS
# [2] = system: 12 patient-specific Kv11.1 variants; assay: as above; settings: 10 μmol/L, 24-hour treatment
smiles,measurement,setting,value
"Cc1cc(C)c2c(c1)[C@@H](N(Cc1cc(C(F)(F)F)cc(C(F)(F)F)c1)c1nnn(C)n1)CCCN2C[C@H]1CC[C@H](C(=O)O)CC1 [Evacetrapib, evacetrapib]",trafficking increase by Tl+-flux assay,[1],not detected
same,number of the 12 variants with improved trafficking,[2],6
